Reference: PubChem BioAssay (NCI)
The entries are a selection whose mix differs from that of the whole data set.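 Growth was measured after 48 h exposure to one concentration of compound in 96-well plates. Values under 10 count as active.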 Activity calls are given as the source filed them.

Key:
Test in all cases: NCI-60 one-dose screen, 48 h (100 = growth as untreated, 0 = no growth, -100 = all killed)
Conditions in all cases: 10 µM
[1] = system: NCI-H23 lung
[2] = system: NCI-H226 lung
[3] = system: NCI-H322M lung
[4] = system: HOP-62 NSCLC
[5] = system: NCI-H460 lung
[6] = system: NCI-H522 lung
[7] = system: A549/ATCC NSCLC
[8] = system: 786-0 renal
[9] = system: COLO 205 colon
[10] = system: HOP-92 NSCLC

Measured: growth

O=[N+]([O-])c1ccc(OP2(=O)COCCO2)cc1 (stereo unspecified)
inactive: [1] 101% | [2] 102% | [3] 114% | [4] 101% | [5] 107% | [6] 106% | [7] 148% | [8] 103% | [9] 150%

CN(Cc1cccnc1)C(=O)COc1ccc(Cl)c(Cl)c1.O=[N+]([O-])c1cc([N+](=O)[O-])c(O)c([N+](=O)[O-])c1
inactive: [1] 98.2% | [3] 109% | [4] 103% | [5] 108% | [10] 83% | [6] 89.5% | [7] 91.9% | [8] 105% | [9] 109%

N=C(N)N(N)[N+](=O)[O-]
inactive: [1] 107% | [2] 107% | [4] 106% | [5] 106% | [7] 103% | [8] 108% | [9] 107%

O=[N+]([O-])c1ccc(Oc2c([N+](=O)[O-])cc([N+](=O)[O-])cc2[N+](=O)[O-])cc1
inactive: [1] 98.2% | [2] 98.5% | [3] 98.3% | [4] 110% | [5] 107% | [6] 99.1% | [7] 105% | [8] 105% | [9] 116%

CCN(CC)CCOC(=O)C(O)(c1ccccc1)c1cc(C)c(C)c(C)c1C (stereo unspecified)
inactive: [1] 94.5% | [2] 99.1% | [3] 92.9% | [4] 84.7% | [5] 101% | [10] 83.6% | [6] 96.4% | [7] 88% | [8] 90.7% | [9] 89.2%

n1nc(-c2nn[nH]n2)n[nH]1
inactive: [1] 105% | [2] 97.3% | [3] 107% | [4] 98.9% | [5] 118% | [6] 83.8% | [7] 99.2% | [8] 100% | [9] 125%

O=[N+]([O-])c1cccc([N+](=O)[O-])c1O
inactive: [1] 105% | [2] 109% | [3] 115% | [4] 100% | [5] 110% | [7] 99.6% | [8] 107% | [9] 111%
